Source: patent US7235375B2, “Organic anion transport proteins” (Bristol-Myers Squibb Company, priority 1999, dated 2007)
Entries after “also recorded” stand apart in the source; their conditions may differ.

Protein sequences, listed by entry. Tags and fused reporters are not part of them.
UniProt Q9Y6L6, whole entry N130D: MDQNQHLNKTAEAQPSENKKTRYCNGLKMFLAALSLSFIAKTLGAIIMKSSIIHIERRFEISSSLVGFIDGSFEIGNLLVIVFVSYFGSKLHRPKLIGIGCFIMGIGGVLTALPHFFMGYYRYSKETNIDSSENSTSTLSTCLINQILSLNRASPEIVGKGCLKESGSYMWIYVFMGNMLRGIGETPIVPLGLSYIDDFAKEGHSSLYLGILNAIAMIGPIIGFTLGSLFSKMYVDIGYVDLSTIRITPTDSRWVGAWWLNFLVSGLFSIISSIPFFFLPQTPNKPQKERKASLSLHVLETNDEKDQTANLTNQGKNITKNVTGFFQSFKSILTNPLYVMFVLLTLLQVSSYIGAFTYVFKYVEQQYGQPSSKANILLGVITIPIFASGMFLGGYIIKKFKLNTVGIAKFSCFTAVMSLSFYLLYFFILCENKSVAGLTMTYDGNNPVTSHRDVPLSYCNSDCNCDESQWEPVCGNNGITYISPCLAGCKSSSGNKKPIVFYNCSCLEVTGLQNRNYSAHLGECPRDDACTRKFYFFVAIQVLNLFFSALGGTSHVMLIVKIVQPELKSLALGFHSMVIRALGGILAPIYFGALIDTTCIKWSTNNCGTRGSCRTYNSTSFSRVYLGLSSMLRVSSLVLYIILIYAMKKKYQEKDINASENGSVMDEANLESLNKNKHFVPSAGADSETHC

Target: OATP2 (Homo sapiens, UniProt Q9Y6L6, N130D)
Conditions: 293EBNA (HEK293 derivative) cells transfected with pCEP-OATP2 or empty vector (MOCK); uptake for 5 minutes; absence and presence of excess unlabeled substrate; FIG. 2
Method: An assay for the measurement of OATP activity is performed as follows: HEK293 cells are plated in Dulbeccos Modified Eagles Medium (DMEM) plus 10% fetal bovine serum plus penicillin and streptomycin, in poly-d-lysine coated dishes and co-transfected with OATP transporter expression plasmids using Lipofectamine Plus (Life Technologies, Inc.). The cells and media are assayed for substrate transport 24 hours later. Alternatively, cell lines engineered to stably express OATPs could be plated and assayed directly without transfection. To measure transport, media is removed and monolayers are assayed in triplicate by washing once in serum-free DMEM and adding the same medium containing [^3H]-substrate alone or in the presence of various concentrations of unlabeled test compounds. […] The transport activity is expressed as moles of substrate transported into cells/mg of cell protein/minute. […]
293EBNA cells (Invitrogen, Inc.), an HEK293 cell derivative, were transiently transfected with the OATP2 expression vector pCEP-OATP2, or the pCEP4 vector alone (MOCK) and the transport of [^3H]-labeled substrates was determined 24 hours later. […] The uptake of radiolabeled substrate for 5 minutes into cells transfected with pCEP-OATP2 or empty vector (MOCK) was determined in the absence (solid bars) and presence (open bars) of excess unlabeled substrate.

dehydroepiandrosterone sulfate [DHEAS]
transport (specific uptake of radiolabeled substrate) by OATP2: specific uptake; also recorded: transports
